Experimental data taken from patent US20240018206A1 (BEIJING VDJBIO, published 2024).
Residue numbers refer to the chain shown, from its start. Numbers in names are those of the source.

T1: IL-1 receptor (IL-1R1), the receptor of the SPR assay (UniProt P14778 18-332, limits assumed)
T1 construct: also called fixed receptor
T1 sequence (looked up): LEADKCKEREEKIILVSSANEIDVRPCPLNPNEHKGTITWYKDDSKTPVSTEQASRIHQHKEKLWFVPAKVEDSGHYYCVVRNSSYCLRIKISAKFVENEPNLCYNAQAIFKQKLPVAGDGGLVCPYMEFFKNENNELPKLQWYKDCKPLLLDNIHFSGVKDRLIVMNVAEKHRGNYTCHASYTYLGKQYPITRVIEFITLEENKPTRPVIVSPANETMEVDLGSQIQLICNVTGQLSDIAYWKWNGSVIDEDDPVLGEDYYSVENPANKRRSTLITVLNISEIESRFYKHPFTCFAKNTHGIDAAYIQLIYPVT

T2: IL-1 receptor (IL-1R1) on A375.s2 cells (UniProt P14778 18-569, limits assumed)
T2 sequence (looked up): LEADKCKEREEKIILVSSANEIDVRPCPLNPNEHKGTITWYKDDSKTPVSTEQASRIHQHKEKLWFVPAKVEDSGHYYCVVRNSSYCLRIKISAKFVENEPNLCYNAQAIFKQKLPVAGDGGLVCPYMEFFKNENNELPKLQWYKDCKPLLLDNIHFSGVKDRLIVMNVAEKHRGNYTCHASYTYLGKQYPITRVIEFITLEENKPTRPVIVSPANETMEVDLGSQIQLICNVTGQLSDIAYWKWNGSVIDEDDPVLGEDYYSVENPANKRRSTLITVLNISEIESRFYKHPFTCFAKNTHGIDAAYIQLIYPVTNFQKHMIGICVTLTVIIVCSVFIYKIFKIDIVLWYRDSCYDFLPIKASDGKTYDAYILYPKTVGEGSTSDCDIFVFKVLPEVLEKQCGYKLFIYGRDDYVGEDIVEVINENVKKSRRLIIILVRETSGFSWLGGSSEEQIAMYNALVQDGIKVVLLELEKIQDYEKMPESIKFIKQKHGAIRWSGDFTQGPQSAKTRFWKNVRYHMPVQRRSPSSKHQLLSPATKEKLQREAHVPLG

B1: IL-1RN R5T D74N-Fc (Fc fusion)
chain: RPSGTKSSKMQAFRIWDVNQKTFYLRNNQLVAGYLQGPNVNLEEKIDVVPIEPHALFLGIHGGKMCLSCVKSGNETRLQLEAVNITDLSENRKQDKRFAFIRSDSGPTTSFESAACPGWFLCTAMEADQPVSLTNMPDEGVMVTKFYFQEDEGGGGSGGGGSGGGGSESKYGPPCPPCPAPEFLGGPSVFLFPPKPKDTLMISRTPEVTCVVVDVSQEDPEVQFNWYVDGVEVHNAKTKPREEQFNSTYRVVSVLTVLHQDWLNGKEYKCKVSNKGLPSSIEKTISKAKGQPREPQVYTLPPSQEEMTKNQVSLTCLVKGFYPSDIAVEWESNGQPENNYKTTPPVLDSDGSFFLYSRLTVDKSRWQEGNVFSCSVMHEALHNHYTQKSLSLSLGK
B2: IL-1RN R5T R14T-Fc (Fc fusion)
chain: B1 chain with R14T, N74D
B3: IL-1RN R5T-Fc (Fc fusion)
chain: B1 chain with N74D
B4: IL-1RN R14T D74N-Fc (Fc fusion)
chain: B1 chain with T5R, R14T
B5: IL-1RN R14T-Fc (Fc fusion)
chain: B1 chain with T5R, R14T, N74D

biological target: T1, IL-1 receptor (IL-1R1), the receptor of …; assay: SPR, BIAcore 3000, 25 C, analyte 1.2 to 100 nM
Description: All SPR measurements are performed on a BIAcore 3000 instrument (GE Biosciences, Piscataway, N.J.). BIAcore software-BIAcore 3000 control software V3.2 is used to operate and control the BIAcore 3000 instrument. SPR data from the BIAcore 3000 instrument are analyzed using evaluation software V4.1, and the data are plotted using Graph Pad Prism software version 5. […] The fusion protein shown is used as a ligand for constructing the reference channel of a chip. The analyte IL-1RN-Fc bound to the fixed receptor is measured, with a concentration of 1.2 to 100 nM (3-fold dilution). Each sample is injected at a flow rate of 30 μL/min for 3 minutes to bind to the fusion protein bound to the chip. Next, the binding buffer without analyte is passed through the chip at the same flow rate to dissociate the bound analyte. 500 s later, the regeneration solution (1M formic acid) is injected to remove the residual binding analyte. The data are analyzed using the Kinetics Guidelines and the manual fitting program attached to BiaEvaluation software V4.1.

Binder	Kd	Relative Affinity	koff	kon
B1	97 pM	12.1 fold (reference IL-1RN-Fc)	1.83e-05 s⁻¹	189000 M⁻¹ s⁻¹
B2	260 pM	4.5 fold (reference IL-1RN-Fc)	4.65e-05 s⁻¹	179000 M⁻¹ s⁻¹
B3	334 pM	3.5 fold (reference IL-1RN-Fc)	5.75e-05 s⁻¹	172000 M⁻¹ s⁻¹
B4	107 pM	11 fold (reference IL-1RN-Fc)	1.98e-05 s⁻¹	185000 M⁻¹ s⁻¹
B5	476 pM	2.5 fold (reference IL-1RN-Fc)	8.05e-05 s⁻¹	169000 M⁻¹ s⁻¹

biological target: T2, IL-1 receptor (IL-1R1) on A375.s2 cells; assay: cell-based or functional assay

Binder	IC50(µg/ml), inhibition of IL-1β induced A375.s2 apoptosis (MTS, 490 nM)
B1	1.38 µg/mL
B2	3.5 µg/mL
B3	3.08 µg/mL
B4	1.45 µg/mL
B5	2.67 µg/mL
